In patent US9725465B2, “Biaryl acetamide compounds and methods of use thereof” (Ambit Biosciences Corporation, priority 2013, dated 2017):
Where a name gives a salt, the structure may show the parent alone.

Assays:
FLT3-ITD-F691L = FLT3-ITD-F691L (Homo sapiens (Human), UniProt P36888, F691L/INS600HVDFREYEYD); assay: pFLT3 MSD assay, Ba/F3 FLT3-ITD-F691L; type: cell-based; settings: Ba/F3 FLT3-ITD-F691L cells, 2 hours, read-out: BaF3-FLT3-ITD-F691L pFlt3 IC50
FLT3-ITD-D835V = FLT3-ITD-D835V (Homo sapiens (Human), UniProt P36888, D835V/INS600HVDFREYEYD); assay: pFLT3 MSD assay, Ba/F3 FLT3-ITD-D835V; type: cell-based; settings: Ba/F3 FLT3-ITD-D835V cells, 2 hours, read-out: BaF3-FLT3-ITD-D835V pFlt3 IC50

Row | SMILES | IC50 (FLT3-ITD-F691L) [µM] | IC50 (FLT3-ITD-D835V) [µM]
1 | CN(C)C(=O)c1n[nH]c2ncc(-c3ccc(CC(=O)Nc4cc(C(C)(C)C)on4)cc3)cc12 [Example 45, 5-(4-(2-((5-(tert-butyl)isoxazol-3-yl)amino)-2-oxoethyl)phenyl)-N,N-dimethyl-1H-pyrazolo[3,4-b]pyridine-3-carboxamide] | < 0.01 | 0.01 to 0.02
2 | CC(C)(c1cc(NC(=O)Cc2ccc(-c3cnc4[nH]nc(OC5CCNCC5)c4c3)cc2)no1)C(F)(F)F [Example 48, 2-(4-(3-(piperidin-4-yloxy)-1H-pyrazolo[3,4-b]pyridin-5-yl)phenyl)-N-(5-(1,1,1-trifluoro-2-methylpropan-2-yl)isoxazol-3-yl)acetamide formate salt] | 0.01 to 0.02 | 0.01 to 0.02
3 | CN(C)C(=O)c1cc2cc(-c3ccc(CC(=O)Nc4cc(C(C)(C)C)on4)cc3)cnc2[nH]1 [Example 49, 5-(4-(2-((5-(tert-butyl)isoxazol-3-yl)amino)-2-oxoethyl)phenyl)-N,N-dimethyl-1H-pyrrolo[2,3-b]pyridine-2-carboxamide] | < 0.01 | < 0.01
4 | CC(C)(C)c1cc(NC(=O)Cc2ccc(-c3cnc4[nH]c(CO)cc4c3)cc2)no1 [Example 50, N-(5-(tert-butyl)isoxazol-3-yl)-2-(4-(2-(hydroxymethyl)-1H-pyrrolo[2,3-b]pyridin-5-yl)phenyl)acetamide] | < 0.01 | < 0.01
5 | Cc1n[nH]c2ncc(-c3ccc(CC(=O)Nc4cc(C(C)(C)C)on4)c(F)c3)cc12 [Example 51, N-(5-(tert-butyl)isoxazol-3-yl)-2-(2-fluoro-4-(3-methyl-1H-pyrazolo[3,4-b]pyridin-5-yl)phenyl)acetamide] | < 0.01 | < 0.01
6 | CN(C)Cc1cc2cc(-c3ccc(CC(=O)Nc4cc(C(C)(C)C)on4)cc3)cnc2[nH]1 [Example 52, N-(5-(tert-butyl)isoxazol-3-yl)-2-(4-(2-((dimethylamino)methyl)-1H-pyrrolo[2,3-b]pyridin-5-yl)phenyl)acetamide] | 0.02 to 0.05 | > 0.05
7 | COc1n[nH]c2ncc(-c3ccc(CC(=O)Nc4cc(C5(C(F)(F)F)CC5)on4)c(F)c3)cc12 [Example 53, 2-(2-fluoro-4-(3-methoxy-1H-pyrazolo[3,4-b]pyridin-5-yl)phenyl)-N-(5-(1-(trifluoromethyl)cyclopropyl)isoxazol-3-yl)acetamide] | < 0.01 | < 0.01
8 | CNCc1c[nH]c2ncc(-c3ccc(CC(=O)Nc4cc(C(C)(C)C)on4)cc3)cc12 [Example 54, N-(5-(tert-butyl)isoxazol-3-yl)-2-(4-(3-((methylamino)methyl)-1H-pyrrolo[2,3-b]pyridin-5-yl)phenyl)acetamide] | > 0.05 | > 0.05
9 | CC(C)(C)c1cc(NC(=O)Cc2ccc(-c3cnc4[nH]nc(CO)c4c3)cc2F)no1 [Example 55, N-(5-(tert-butyl)isoxazol-3-yl)-2-(2-fluoro-4-(3-(hydroxymethyl)-1H-pyrazolo[3,4-b]pyridin-5-yl)phenyl)acetamide] | < 0.01 | < 0.01
10 | O=C(Cc1ccc(-c2cnc3[nH]ncc3c2)cc1F)Nc1cc(C2(C(F)(F)F)CCC2)on1 [Example 56, 2-(2-Fluoro-4-(1H-pyrazolo[3,4-b]pyridin-5-yl)phenyl)-N-(5-(1-(trifluoromethyl)cyclobutyl)isoxazol-3-yl)acetamide] | < 0.01 | < 0.01
11 | CNCc1n[nH]c2ncc(-c3ccc(CC(=O)Nc4cc(C(C)(C)C)on4)c(F)c3)cc12 [Example 57, N-(5-(tert-butyl)isoxazol-3-yl)-2-(2-fluoro-4-(3-((methylamino)methyl)-1H-pyrazolo[3,4-b]pyridin-5-yl)phenyl)acetamide] | 0.02 to 0.05 | > 0.05
12 | CN(C)Cc1n[nH]c2ncc(-c3ccc(CC(=O)Nc4cc(C(C)(C)C)on4)c(F)c3)cc12 [Example 58, N-(5-(tert-butyl)isoxazol-3-yl)-2-(4-(3-((dimethylamino)methyl)-1H-pyrazolo[3,4-b]pyridin-5-yl)-2-fluorophenyl)acetamide] | 0.01 to 0.02 | 0.02 to 0.05
13 | CN(C)Cc1c[nH]c2ncc(-c3ccc(CC(=O)Nc4cc(C(C)(C)C)on4)cc3)cc12 [Example 59, N-(5-(tert-butyl)isoxazol-3-yl)-2-(4-(3-((dimethylamino)methyl)-1H-pyrrolo[2,3-b]pyridin-5-yl)phenyl)acetamide formate salt] | > 0.05 | > 0.05
14 | CC(C)(C)c1cc(NC(=O)Cc2ccc(-c3cnc4[nH]cc(CO)c4c3)cc2)no1 [Example 60, N-(5-(tert-butyl)isoxazol-3-yl)-2-(4-(3-(hydroxymethyl)-1H-pyrrolo[2,3-b]pyridin-5-yl)phenyl)acetamide] | < 0.01 | < 0.01
15 | CN(C)c1n[nH]c2ncc(-c3ccc(CC(=O)Nc4cc(C5(C(F)(F)F)CC5)on4)c(F)c3)cc12 [Example 61, 2-(4-(3-(dimethylamino)-1H-pyrazolo[3,4-b]pyridin-5-yl)-2-fluorophenyl)-N-(5-(1-(trifluoromethyl)cyclopropyl)isoxazol-3-yl)acetamide] | < 0.01 | < 0.01
16 | CC(C)(C)c1cc(NC(=O)Cc2ccc(-c3cnc4[nH]ccc4c3)cc2)on1 [Example 71, 2-(4-(1H-pyrrolo[2,3-b]pyridin-5-yl)phenyl)-N-(3-(tert-butyl)isoxazol-5-yl)acetamide] | < 0.01 | < 0.01
17 | COc1cc2ncc(-c3ccc(CC(=O)Nc4cc(C5(C(F)(F)F)CC5)no4)cc3)nc2cc1OC [Example 72, 2-(4-(6,7-dimethoxyquinoxalin-2-yl)phenyl)-N-(3-(1-(trifluoromethyl)cyclopropyl)isoxazol-5-yl)acetamide] | < 0.01 | < 0.01
18 | COc1cc2ncc(-c3ccc(CC(=O)Nc4cc(C(C)(C)C)no4)cc3)nc2cc1OC [Example 73, N-(3-(tert-butyl)isoxazol-5-yl)-2-(4-(6,7-dimethoxyquinoxalin-2-yl)phenyl)acetamide] | < 0.01 | 0.01 to 0.02
19 | CC(=O)OCCOc1cc2ncc(-c3ccc(CC(=O)Nc4cc(C5(C(F)(F)F)CC5)on4)c(F)c3)nc2cc1OCCOC(C)=O [Example 74, ((2-(3-fluoro-4-(2-oxo-2-((5-(1-(trifluoromethyl)cyclopropyl)isoxazol-3-yl)amino)ethyl)phenyl)quinoxaline-6,7-diyl)bis(oxy))bis(ethane-2,1-diyl) diacetate] | < 0.01 | < 0.01
20 | O=C(Cc1ccc(-c2cnc3cc(OCCO)c(OCCO)cc3n2)cc1F)Nc1cc(C2(C(F)(F)F)CC2)on1 [Example 75, 2-(4-(6,7-bis(2-hydroxyethoxy)quinoxalin-2-yl)-2-fluorophenyl)-N-(5-(1-(trifluoromethyl)cyclopropyl)isoxazol-3-yl)acetamide] | < 0.01 | < 0.01
21 | O=C(Cc1ccc(-c2cnc3cc4c(cc3n2)OCCO4)cc1F)Nc1cc(C2(C(F)(F)F)CC2)on1 [Example 76, 2-(4-(2,3-dihydro-[1,4]dioxino[2,3-g]quinoxalin-7-yl)-2-fluorophenyl)-N-(5-(1-(trifluoromethyl)cyclopropyl)isoxazol-3-yl)acetamide] | 0.01 to 0.02 | 0.02 to 0.05
22 | COc1cc2nc(-c3ccc(CC(=O)Nc4cc(C5(C(F)(F)F)CC5)on4)c(F)c3)cnc2cc1O [Example 78, 2-(2-fluoro-4-(6-hydroxy-7-methoxyquinoxalin-2-yl)phenyl)-N-(5-(1-(trifluoromethyl)cyclopropyl)isoxazol-3-yl)acetamide] | < 0.01 | < 0.01
23 | CCOc1cc2ncc(-c3ccc(CC(=O)Nc4cc(C5(C(F)(F)F)CC5)on4)c(F)c3)cc2cc1OC [Example 86, 2-(4-(7-ethoxy-6-methoxyquinolin-3-yl)-2-fluorophenyl)-N-(5-(1-(trifluoromethyl)cyclopropyl)isoxazol-3-yl)acetamide] | < 0.01 | < 0.01
24 | O=C(Cc1ccc(-c2cnc3[nH]c(C(=O)O)cc3c2)cc1F)Nc1cc(C2(C(F)(F)F)CC2)on1 [Example 106, 5-[3-fluoro-4-[2-oxo-2-[[5-[1-(trifluoromethyl)cyclo-propyl]isoxazol-3-yl]amino]ethyl]phenyl]-1H-pyrrolo[2,3-b]pyridine-2-carboxylic acid] | > 0.05 | > 0.05
25 | CS(=O)(=O)CCNC(=O)c1cc2cc(-c3ccc(CC(=O)Nc4cc(C5(C(F)(F)F)CC5)on4)c(F)c3)cnc2[nH]1 [Example 107, 5-[3-fluoro-4-[2-oxo-2-[[5-[1-(trifluoromethyl)cyclo-propyl]isoxazol-3-yl]amino]ethyl]phenyl]-N-(2-methylsulfonylethyl)-1H-pyrrolo[2,3-b]pyridine-2-carboxamide] | < 0.01 | < 0.01
26 | CN(C)CCNC(=O)c1cc2cc(-c3ccc(CC(=O)Nc4cc(C5(C(F)(F)F)CC5)on4)c(F)c3)cnc2[nH]1 [Example 108, N-[2-(dimethylamino)ethyl]-5-[3-fluoro-4-[2-oxo-2-[[5-[1-(trifluoromethyl)cyclo-propyl]isoxazol-3-yl]amino]ethyl]phenyl]-1H-pyrrolo[2,3-b]pyridine-2-carboxamide] | < 0.01 | < 0.01
27 | Cn1cc(-c2n[nH]c3ncc(-c4ccc(CC(=O)Nc5cc(C(C)(C)C)on5)cc4)cc23)cn1 [Example 109, N-(5-tert-butylisoxazol-3-yl)-2-[4-[3-(1-methylpyrazol-4-yl)-1H-pyrazolo[3,4-b]pyridin-5-yl]phenyl]acetamide] | < 0.01 | < 0.01
28 | CN(C)C1CCN(C(=O)c2cc3cc(-c4ccc(CC(=O)Nc5cc(C6(C(F)(F)F)CC6)on5)c(F)c4)cnc3[nH]2)C1 (centres unmarked) [Example 110, 2-[4-[2-[3-(dimethylamino)pyrrolidine-1-carbonyl]-1H-pyrrolo[2,3-b]pyridin-5-yl]-2-fluoro-phenyl]-N-[5-[1-(trifluoro-methyl)cyclopropyl]isoxazol-3-yl]acetamide] | < 0.01 | < 0.01
